## AlphaSeq binding of Ab-14 heavy chain variants to a spike HR2 peptide

Reference: Engelhart et al. 2022, doi:10.1038/s41597-022-01779-4. File: FLAb, binding data.

All variants were tested on one target, the spike HR2 peptide PDVDLGDISGINAS (SARS-CoV-2).

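The parent was found by panning a naive human phage display library on the peptide. Library AAYL49 holds single substitutions and randomly drawn double and triple substitutions in the CDRs. The assay is AlphaSeq: two haploid yeast populations carry antibody and antigen on their surface. Binding brings cells together so that they mate, and sequencing counts the barcode pairs among the diploids. Read counts were normalised to the haploid input and turned into Kd by a linear fit to BCL2-family pairs of known affinity, for each replicate. Each pool was mated in three replicate cultures.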

Each scFv is VH, a (GGGGS)3 linker, VL, as in the parent Ab-14, and differs from it in the CDRs of the heavy chain only.
VH: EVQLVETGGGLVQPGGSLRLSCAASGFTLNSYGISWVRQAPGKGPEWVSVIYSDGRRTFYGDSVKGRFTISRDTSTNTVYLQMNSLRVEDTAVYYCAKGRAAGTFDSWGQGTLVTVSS
VL: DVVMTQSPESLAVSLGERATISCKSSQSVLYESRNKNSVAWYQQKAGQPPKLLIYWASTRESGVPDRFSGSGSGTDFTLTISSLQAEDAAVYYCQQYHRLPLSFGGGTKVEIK

Each variant is given by its three heavy chain CDRs, as the data file delimits them; those of the parent are GFTLNSYGIS, VIYSDGRRTFYGDSVK, GRAAGTFDS. Numbers give log10(Kd / nM), so 0 is 1 nM and 3 is 1 µM. Smaller is tighter. Averages over replicates are reported, and they cover detected replicates only. "nd" marks a missing value. The strain was present, yet no cells mated with the target were sequenced in any replicate, which points to weak or no binding. For reference, the parent read 0.65 as the reference entry and 4.11 (one replicate of three) as a member of this library. Background: pairings of library AAYL49 with three empty control strains gave a value in 15% of cases (median 4.06, 5th percentile 2.83). Values in that range, when seen in few replicates, are hard to tell from nonspecific mating. Also given: how often the same scFv was detected with the empty control strains.

nd (0 of 3 replicates; controls 0 of 9) for GFTLNSYGIS / VIPSDGRRTFYGDSVK / GWAAGTFDS.
nd (0 of 3 replicates; controls 0 of 9) for GFTLNSYGIQ / VIYSDGRRTHYGDSVK / GNAAGTFDS.
nd (0 of 3 replicates; controls 0 of 9) for GATLNSYGIS / VIYSDGPITFYGDSVK / GRAAGTFDS.
2.91 (1 of 3 replicates; controls 4 of 9) for GFTLNSYGIS / VIYIDGRRTFEGDSVK / GRAAGTKDS.
nd (0 of 3 replicates; controls 1 of 9) for GPTLNKYGIS / VIYSDGRRTFYGDSVN / GRAAGTFDS.
4.58 (2 of 3 replicates; controls 5 of 9) for GFTLNSYGIS / VIYSDGRFTFYGDSVC / GRAAGTFDS.
nd (0 of 3 replicates; controls 1 of 9) for GFTLNSYEAS / VIYSDGRRTFYGDSVK / GRAAGTFDS.
nd (0 of 3 replicates; controls 1 of 9) for GITINYYGIS / VIYSDGRRTFYGDSVK / GRAAGTFDS.
nd (0 of 3 replicates; controls 1 of 9) for GFTLNSYGIS / VIYSDNRRTFYGDSVK / YRAASTFDS.
nd (0 of 3 replicates; controls 1 of 9) for GFTLNSYGIS / VKYSDGRRTFYGDSVK / GYAAGSFDS.
2.24 (1 of 3 replicates; controls 0 of 9) for GFTFNSYGIS / VIYSDGERTYYGDSVK / GRAAGTFDS.
nd (0 of 3 replicates; controls 0 of 9) for GFTLNSYGIS / VIYSDGRRTFLGDSVK / GRAAHMFDS.
nd (0 of 3 replicates; controls 0 of 9) for GFTLNSYGIE / VIASDGRRTFYGDSVK / GRAAGTFFS.
nd (0 of 3 replicates; controls 0 of 9) for GFTLNSYGIS / VIYSDGRTLFYGDSVK / GRAAGTHDS.
4.32 (1 of 3 replicates; controls 4 of 9) for GFTLNSYGIS / VIYSDGRRTFYGDRVK / GRAAGTPDS.
2.92 (2 of 3 replicates; controls 1 of 9) for GFQLNSYGIS / VIYSDGRRNFYGDSVK / GRAAGTFDS.
4.39 (1 of 3 replicates; controls 1 of 9) for GFTLESYGIS / VIYSDGRPTFYGESVK / GRAAGTFDS.
nd (0 of 3 replicates; controls 0 of 9) for GFTLNSYGIS / VRYSDGRRTKYGDSVK / GRAAGTFDQ.
nd (0 of 3 replicates; controls 0 of 9) for GFTLNSYGIS / VIYLDGRRTFYGFSVK / GRAAGTFDS.
3.31 (1 of 3 replicates; controls 0 of 9) for GFYKNSYGIS / VIYSDGRRTFYGDSVK / GRAAGQFDS.
2.78 (2 of 3 replicates; controls 3 of 9) for GFTLNSYGIS / VIYSDGRREFYGDSVK / GYAAGAFDS.
4.55 (2 of 3 replicates; controls 1 of 9) for GFTLNSYGIS / LITSDGRKTFYGDSVK / GRAAGTFDS.
4.31 (2 of 3 replicates; controls 8 of 9) for GFTLNSTGIM / VIWSDGRRTFYGDSVK / GRAAGTFDS.
3.28 (1 of 3 replicates; controls 1 of 9) for GFTLNNYGIS / VIYSDGRRTFYWDSVK / GRAALTFDS.
5.66 (1 of 3 replicates; controls 3 of 9) for GFTLNSWPIG / VIYSDGRRTFYGDSVK / GRAAGTFDS.
nd (0 of 3 replicates; controls 2 of 9) for GFTLNSGGIG / VIYSDGRRTFYGDSVK / GRAAGTFPS.
nd (0 of 3 replicates; controls 0 of 9) for GFTLNSYGIS / VIYSDGRRTFTGDSVK / DRIAGTFDS.
nd (0 of 3 replicates; controls 0 of 9) for GFTLNSYGIV / VIYSDGRRTFMGDSVK / GRAAGTFDN.
nd (0 of 3 replicates; controls 0 of 9) for GFTLRSYGDS / VIYSDGRRTFYGDSVK / GRPAGTFDS.
2.77 (3 of 3 replicates; controls 1 of 9) for GFTLNSYGIS / VIYSDGRRTVYGDSVY / GRAAGFFDS.
2.26 (3 of 3 replicates; controls 2 of 9) for AFTLNSYGIS / VIYSDGRREYYGDSVK / GRAAGTFDS.
4.11 (1 of 3 replicates; controls 0 of 9) for GFTLNSTGIS / VIYSDGRRTPYGDSVK / GTAAGTFDS.
4.67 (3 of 3 replicates; controls 8 of 9) for GFTLMSYGIS / VMYSDGRRTFYGDSVK / GRAAGPFDS.
0.98 (3 of 3 replicates; controls 1 of 9) for GFTINSYGIS / VIYSDGRRTFYNDYVK / GRAAGTFDS.
4.10 (1 of 3 replicates; controls 1 of 9) for GFTLNSYGES / VIYSCGRRTFYGDSVK / GRAAGTFDY.
nd (0 of 3 replicates; controls 1 of 9) for GFTLNSYGIS / VINSDGRRTFYPPSVK / GRAAGTFDS.
4.46 (1 of 3 replicates; controls 2 of 9) for GFTLNSYGIS / VIYSDGRRTTYGDSVK / GRAMGTFDS.
2.52 (3 of 3 replicates; controls 1 of 9) for GFTLNSYGIS / VIYSDGRRTFYIDSVK / GRARITFDS.
3.48 (1 of 3 replicates; controls 1 of 9) for GFTLNSYGIS / VIYSDIRRTFYGDFVK / GRAAGTFDV.
4.85 (1 of 3 replicates; controls 2 of 9) for GFTLNLYGIS / VIYSGGRRTFYGDSVK / GRAAGTFCS.
3.58 (2 of 3 replicates; controls 0 of 9) for GFTLNSIGIS / VIYSDGRRTFYGDSVG / GRAAGGFDS.
nd (0 of 3 replicates; controls 0 of 9) for GFTLNSYGIS / VIYSDGRREFYGDSVK / GAAAHTFDS.
1.90 (3 of 3 replicates; controls 1 of 9) for GFRLNSYGIS / VIYSDGRRTFYGDSVK / GRAKGTFPS.

Excerpt, the first 6 entries:

CDR-H1	CDR-H2	CDR-H3	mean log10 Kd (nM)	detected	empty controls
GFTLNSYGIS	VIPSDGRRTFYGDSVK	GWAAGTFDS	nd	0 of 3	0 of 9
GFTLNSYGIQ	VIYSDGRRTHYGDSVK	GNAAGTFDS	nd	0 of 3	0 of 9
GATLNSYGIS	VIYSDGPITFYGDSVK	GRAAGTFDS	nd	0 of 3	0 of 9
GFTLNSYGIS	VIYIDGRRTFEGDSVK	GRAAGTKDS	2.91	1 of 3	4 of 9
GPTLNKYGIS	VIYSDGRRTFYGDSVN	GRAAGTFDS	nd	0 of 3	1 of 9
GFTLNSYGIS	VIYSDGRFTFYGDSVC	GRAAGTFDS	4.58	2 of 3	5 of 9